Reference: ChEMBL document CHEMBL2074205, “Inhibitory potencies of 1,4-dihydropyridine calcium antagonists to P-glycoprotein-mediated transport: comparison with the effects on CYP3A4” (Pharm Res, 2000)

Amino acid sequences for entries named in this document (tags omitted).
UniProt P08183, whole entry: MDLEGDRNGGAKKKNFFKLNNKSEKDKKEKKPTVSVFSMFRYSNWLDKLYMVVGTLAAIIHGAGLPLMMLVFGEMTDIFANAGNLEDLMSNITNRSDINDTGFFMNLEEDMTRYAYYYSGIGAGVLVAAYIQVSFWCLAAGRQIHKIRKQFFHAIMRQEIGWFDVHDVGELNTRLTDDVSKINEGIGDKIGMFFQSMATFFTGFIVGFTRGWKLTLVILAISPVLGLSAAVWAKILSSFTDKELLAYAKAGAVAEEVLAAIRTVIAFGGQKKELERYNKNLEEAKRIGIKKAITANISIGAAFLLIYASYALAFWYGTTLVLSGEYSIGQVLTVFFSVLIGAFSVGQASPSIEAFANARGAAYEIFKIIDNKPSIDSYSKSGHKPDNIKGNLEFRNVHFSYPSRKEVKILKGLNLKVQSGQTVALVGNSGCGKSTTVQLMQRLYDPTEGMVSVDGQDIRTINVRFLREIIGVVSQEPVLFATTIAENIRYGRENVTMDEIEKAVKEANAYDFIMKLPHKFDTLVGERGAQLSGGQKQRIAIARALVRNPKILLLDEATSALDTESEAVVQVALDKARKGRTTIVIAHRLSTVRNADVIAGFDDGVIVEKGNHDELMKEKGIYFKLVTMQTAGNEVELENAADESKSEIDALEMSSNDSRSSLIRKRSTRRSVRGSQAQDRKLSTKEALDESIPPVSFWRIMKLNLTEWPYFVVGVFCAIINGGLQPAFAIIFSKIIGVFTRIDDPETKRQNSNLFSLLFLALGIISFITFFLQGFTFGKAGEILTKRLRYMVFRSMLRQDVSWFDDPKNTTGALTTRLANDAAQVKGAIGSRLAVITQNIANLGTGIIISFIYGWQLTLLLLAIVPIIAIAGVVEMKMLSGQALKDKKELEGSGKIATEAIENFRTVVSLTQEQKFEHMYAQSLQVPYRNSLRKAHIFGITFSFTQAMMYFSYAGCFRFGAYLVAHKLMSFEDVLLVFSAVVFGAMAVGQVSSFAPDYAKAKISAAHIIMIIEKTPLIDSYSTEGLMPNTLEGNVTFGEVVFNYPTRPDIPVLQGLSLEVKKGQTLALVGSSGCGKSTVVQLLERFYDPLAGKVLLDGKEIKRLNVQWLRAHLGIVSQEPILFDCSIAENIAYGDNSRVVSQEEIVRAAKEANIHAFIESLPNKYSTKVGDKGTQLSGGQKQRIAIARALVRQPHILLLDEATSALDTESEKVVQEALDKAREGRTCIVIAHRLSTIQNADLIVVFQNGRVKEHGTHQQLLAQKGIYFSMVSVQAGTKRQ

Target: ATP-dependent translocase ABCB1 (Homo sapiens, UniProt P08183)
Test: TP_TRANSPORTER: inhibition of Daunorubicin transepithelial transport (basal to apical) (Daunorubicin: 0.035 uM) in MDR1-expressing LLC-PK1 cells
Type: functional, cell-based

IC50: 17.5 µM
SMILES: COC(=O)C1=C(C)NC(C)=C(C(=O)OCCN(C)Cc2ccccc2)C1c1cccc([N+](=O)[O-])c1 (stereo unspecified) [NICARDIPINE]
